Experimental data reported in ChEMBL document CHEMBL3352090, “Discovery of a Potent Analgesic NOP and Opioid Receptor Agonist: Cebranopadol” (2014).
Activity calls are given as the source filed them. The rule behind the calls is not given here.

The chains behind the UniProt entries cited, without tags or fusion partners. Where a name states a change or a piece, a line headed by the entry shows the natural chain unless it says otherwise.
UniProt P35372, whole entry, looked up: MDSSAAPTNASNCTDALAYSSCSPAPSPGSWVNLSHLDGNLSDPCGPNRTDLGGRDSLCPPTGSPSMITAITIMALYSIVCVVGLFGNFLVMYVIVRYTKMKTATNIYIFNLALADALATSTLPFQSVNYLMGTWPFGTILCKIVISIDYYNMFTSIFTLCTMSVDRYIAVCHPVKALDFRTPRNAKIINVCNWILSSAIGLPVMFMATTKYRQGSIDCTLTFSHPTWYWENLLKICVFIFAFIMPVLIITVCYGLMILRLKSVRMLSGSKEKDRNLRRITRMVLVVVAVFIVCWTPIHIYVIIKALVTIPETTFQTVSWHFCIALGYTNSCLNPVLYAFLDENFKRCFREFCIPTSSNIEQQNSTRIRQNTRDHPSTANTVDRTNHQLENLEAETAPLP
UniProt P41146: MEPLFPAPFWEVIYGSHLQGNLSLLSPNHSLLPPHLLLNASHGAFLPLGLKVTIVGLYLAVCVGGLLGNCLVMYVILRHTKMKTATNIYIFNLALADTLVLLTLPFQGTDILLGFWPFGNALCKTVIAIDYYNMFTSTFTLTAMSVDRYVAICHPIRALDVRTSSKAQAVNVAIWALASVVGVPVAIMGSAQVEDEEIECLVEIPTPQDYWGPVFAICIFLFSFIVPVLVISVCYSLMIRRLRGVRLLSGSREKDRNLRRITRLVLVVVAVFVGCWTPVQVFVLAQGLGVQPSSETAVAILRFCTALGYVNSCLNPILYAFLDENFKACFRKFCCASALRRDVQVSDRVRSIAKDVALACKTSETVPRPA

Experiments:
Mus musculus [1] = assay: Antinociceptive activity in CD1 mouse model of streptozotocin induced diabetic polyneuropathy assessed as reduction in thermal hyperalgesia at 2.1 nmol/kg, iv by hot plate test
Mus musculus [2] = assay: Antinociceptive activity in orally dosed NMRI mouse assessed as increase in latency for tail withdrawal from radiant heat source by tail flick test
Mus musculus [3] = assay: Antinociceptive activity in CD1 mouse assessed as reduction in thermal hyperalgesia at 2.1 nmol/kg, iv by hot plate test
Mus musculus [4] = assay: Antinociceptive activity in iv dosed NMRI mouse assessed as increase in latency for tail withdrawal from radiant heat source by tail flick test
[5] = target: Mu-type opioid receptor (Homo sapiens) (UniProt P35372); assay: Agonist activity at human recombinant MOP receptor expressed in CHO-K1 cells assessed as stimulation of [35S]GTPgammaS binding by scintillation proximity assay relative to DAMGO
[6] = target: Nociceptin receptor (Homo sapiens) (UniProt P41146); assay: Agonist activity at human recombinant NOP receptor expressed in CHO-K1 cells assessed as stimulation of [35S]GTPgammaS binding by scintillation proximity assay relative to nociceptin

SMILES: CN(C)[C@]1(c2ccccc2)CC[C@]2(CC1)OCCc1c3cc(F)ccc3[nH]c12
- inhibition (Mus musculus [1]): Active
- inhibition (Mus musculus [2]): Dose-dependent effect
- inhibition (Mus musculus [3]): inactive
- inhibition (Mus musculus [4]): Dose-dependent effect
- Efficacy [5]: 104%
- Efficacy [6]: 89%
